# Assay results reported in US9290490B2 (Merck Sharp & Dohme Corp., priority 2011, dated 2016).
# Where a name gives a salt, the structure may show the parent alone. Read-outs that look alike come from different tables or passages of the source.
# Target: recombinant human GST-Syk (Homo sapiens (Human), UniProt P43405)
# Assay: Homogeneous Time-Resolved Fluorescence (HTRF) Assay for the Recombinant Human Syk Enzyme
# Assay type: biochemical
# Conditions: read-out: rhSyk Activity (IC50), recombinant human GST-Syk 5 pM, ATP 25 μM
IC50 (tested form: ammonium salt),Structure (SMILES),further results
< 100 nM,"COc1ccnc(Nc2cc(C)cc(-c3cnc(C(C)(O)[C@H]4CC[C@H](C(=O)O)CC4)s3)c2)n1 (single isomer, unassigned)",
< 100 nM,"COc1nc(Nc2cc(C)cc(-c3cnc(C(C)(O)[C@H]4CC[C@H](C(=O)O)CC4)s3)c2)ncc1Cl (single isomer, unassigned)",
< 100 nM,"COc1nc(Nc2cc(C)cc(-c3cnc(C(C)(O)[C@H]4CC[C@H](C(=O)O)CC4)s3)c2)ncc1F (single isomer, unassigned)",
< 100 nM,"Cc1cc(Nc2ncc(Cl)c(C)n2)cc(-c2cnc(C(C)(O)[C@H]3CC[C@H](C(=O)O)CC3)s2)c1 (single isomer, unassigned)",
< 100 nM,"Cc1cc(Nc2ncc(F)c(C)n2)cc(-c2cnc(C(C)(O)[C@H]3CC[C@H](C(=O)O)CC3)s2)c1 (single isomer, unassigned)",
< 100 nM,"Cc1cc(Nc2nccc(C(C)C)n2)cc(-c2cnc(C(C)(O)[C@H]3CC[C@H](C(=O)O)CC3)s2)c1 (single isomer, unassigned)",
< 100 nM,"Cc1cc(Nc2nccc(C3CC3)n2)cc(-c2cnc(C(C)(O)[C@H]3CC[C@H](C(=O)O)CC3)s2)c1 (single isomer, unassigned)","IC50 (tested form: ammonium salt, TFA salt): < 100 nM"
< 100 nM,"Cc1cc(Nc2nccc(OC(C)C)n2)cc(-c2cnc(C(C)(O)[C@H]3CC[C@H](C(=O)O)CC3)s2)c1 (single isomer, unassigned)",
,"CCOC(=O)[C@H]1CC[C@H](C(O)(CC)c2ncc(-c3cc(C)cc(Nc4nccc(C(F)(F)F)n4)c3)s2)CC1 (single isomer, unassigned) [2-5]",IC50: 100 to 1000 nM
,"CCOC(=O)[C@H]1CC[C@H](C(O)(CC)c2ncc(-c3cc(C)cc(Nc4nccc(C(F)(F)F)n4)c3)s2)CC1 (single isomer, unassigned) [2-7]",IC50: < 100 nM
,"Cc1cc(Nc2nccc(C)n2)cc(-c2cnc(C(C)(O)[C@H]3CC[C@H](C(=O)O)CC3)s2)c1 (single isomer, unassigned) [Example 2-52, trans-4-[(1R or S)-hydroxy-1-(5-{3-methyl-5-[(4-methylpyrimidin-2-yl)amino]phenyl}-1,3-thiazol-2-yl)ethyl]cyclohexanecarboxylic acid]",IC50: < 100 nM
,"Cc1cc(Nc2nccc(C(F)(F)F)n2)cc(-c2cnc(C(C)(O)[C@H]3CC[C@H](c4nn[nH]n4)CC3)s2)c1 (single isomer, unassigned) [Example 6 (faster eluting enantiomer), 2-{[3-(2-{1-hydroxy-1-[trans-4-(2H-tetrazol-5-yl)cyclohexyl]ethyl}-1,3-thiazol-5-yl)-5-methylphenyl]amino}-4-(trifluoromethyl)pyrimidin-1-ium trifluoroacetate]",IC50 (tested form: TFA): < 100 nM
